Laboratory results as given in ChEMBL document CHEMBL4257577.

Molecular target: Acetylcholinesterase (Homo sapiens, UniProt P22303)
Assay: Reversible inhibition of recombinant human recombinant AChE using acetylthiocholine iodide as substrate by Ellman spectrophotometric method

In the case of `NC(=O)c1cc[n+](C/C=C/C[n+]2cc(Cl)c(/C=N/O)c(Cl)c2)cc1`, the Ki is reported as 22 µM.

`NC(=O)c1cc[n+](CCC[n+]2ccc(/C=N/O)c(Cl)c2)cc1` showed a Ki of 42 µM.

Compound `NC(=O)c1cc[n+](C/C=C/C[n+]2ccc(/C=N/O)c(Cl)c2)cc1` has a Ki of 24 µM.

`NC(=O)c1cc[n+](CCCC[n+]2ccc(/C=N/O)c(Cl)c2)cc1` gave a Ki of 36 µM.

Compound `NC(=O)c1cc[n+](CCC[n+]2cc(Cl)c(/C=N/O)c(Cl)c2)cc1` has a Ki of 21 µM.

`NC(=O)c1cc[n+](CCCC[n+]2cc(Cl)c(/C=N/O)c(Cl)c2)cc1` gave a Ki of 12 µM.
